Measurements: publication PMC12860355

Biological target: monomeric actin (ATP–G-actin), chicken skeletal muscle (chicken) (UniProt P68139)
Assay: SPR; actin on chip; RanGTP 0–1250 nM, 180 s association, 300 s dissociation; two-state kinetic fit

pKd: 6.52
Substance: RanGTP (RanQ69L loaded with GTP) (from UniProt P62826 1-216) (natural protein)

pKd: −log10 of the molar value.
